Tested on: LS-180 tumor xenografts
Conditions: mouse, in vivo

## [(N-methyl-N-biotinyl)-N-glycyl]-aminobenzyl-DOTA [Lu-177-DOTA-biotin]
  AUC tumor/AUC blood, increase over comparable conventional MAb-radiolabel administration: over 1000%
  AUC tumor/AUC blood, increase over comparable direct MAb-radiolabel administration: 300%
  delivery to tumor: 20-25 % injected dose/gram of tumor

— patent publication US5976535A, “Pretargeting protocols for the enhanced localization of cytotoxins to target sites and cytotoxic combinations useful therefore” (NeoRx Corporation, priority 1995, dated 1999)
